Data reported in patent publication US20240325544A1, “CATIONIC LIPID FOR COVALENT MODIFICATION OF PEPTIDES” (PharmalN Corporation, priority 2023, published 2024).
Marks after values point to notes of the source that are not given here.

How the values were obtained:
cGMP = experiment: Plasma cGMP after SC bolus of natriuretic peptides in CD-1 mice (pharmacodynamics, Table 3); format: in vivo; settings: SC bolus 1.0 mg/kg (≤0.45 μmol/kg), baseline 10 +/−8 pmol/ml, n = 3-5
Description: (§1) The test articles were formulated or dissolved in sterile water for injection on the same day of administration. […] Blood samples were collected via retro-orbital bleed at 2- and 6-hours post-injection, with two bleedings per animal at two different timepoints. The samples were collected in K2EDTA tubes, processed by centrifugation (2000×g; 15 m 4 eC within 30 minutes after collection), and the resulting plasma samples were stored at −80° C. Biochemical analysis: The plasma concentration of the respective natriuretic peptide was analyzed using commercially available ELISA kits from Phoenix Pharmaceuticals (Burlingame, CA): ANP ELISA (cat #EKE-005-06), BNP ELISA (cat #EKE-011-03), and CNP ELISA (cat #EKE-012-03). […] Plasma cGMP was analyzed using a commercially available kit from Abcam (ab133052, Waltham, MA).

[1] = Plasma concentration of respective natriuretic peptide by ELISA after SC bolus in CD-1 mice (pharmacokinetics, Table 3); settings: male, CD-1, mouse, in vivo, 1 mg/kg
Description: as §1

| level at 2 h [1] [ng/mL] | level at 6 h [1] [ng/mL] | Compound | Plasma concentration of cGMP, 2 hr (cGMP) | Plasma concentration of cGMP, 6 hr (cGMP) [pmol/mL] |
| --- | --- | --- | --- | --- |
|  |  | CCCCCCCCCCCCCCCC(=O)NCCOCCOCC(=O)NCCOCCOCC(=O)NCCOCCOCC(=O)N[C@@H](CN)C(=O)N[C@@H](CN)C(=O)N[C@@H](CO)C(=O)N[C@@H](CC(C)C)C(=O)N[C@@H](CCCNC(=N)N)C(=O)N[C@@H](CCCNC(=N)N)C(=O)N[C@@H](CO)C(=O)N[C@@H](CO)C(=O)N[C@H]1CSSC[C@@H](C(=O)N[C@@H](CC(N)=O)C(=O)N[C@@H](CO)C(=O)N[C@@H](Cc2ccccc2)C(=O)N[C@@H](CCCNC(=N)N)C(=O)N[C@@H](Cc2ccc(O)cc2)C(=O)O)NC(=O)CNC(=O)[C@H](CC(C)C)NC(=O)CNC(=O)[C@H](CO)NC(=O)[C@H](CCC(N)=O)NC(=O)[C@H](C)NC(=O)CNC(=O)[C@H]([C@@H](C)CC)NC(=O)[C@H](CCCNC(=N)N)NC(=O)[C@H](CC(=O)O)NC(=O)[C@H](CC(C)C)NC(=O)[C@H](CCCNC(=N)N)NC(=O)CNC(=O)CNC(=O)[C@H](Cc2ccccc2)NC1=O [SEQ ID NO: 45] | 123.82** pmol/mL | 16.18 |
| 67.1 | 37.2 | CCCCCCCCCCCCCCCC(=O)NCCOCCOCC(=O)NCCOCCOCC(=O)NCCOCCOCC(=O)N[C@@H](CN)C(=O)N[C@@H](CN)C(=O)N[C@@H](CO)C(=O)N[C@@H](CC(C)C)C(=O)N[C@@H](CCCNC(=N)N)C(=O)N[C@@H](CCCNC(=N)N)C(=O)N[C@@H](CO)C(=O)N[C@@H](CO)C(=O)N[C@H]1CSSC[C@@H](C(=O)N[C@@H](CC(N)=O)C(=O)N[C@@H](CO)C(=O)N[C@@H](Cc2ccccc2)C(=O)N[C@@H](CCCNC(=N)N)C(=O)N[C@@H](Cc2ccc(O)cc2)C(=O)O)NC(=O)CNC(=O)[C@H](CC(C)C)NC(=O)CNC(=O)[C@H](CO)NC(=O)[C@H](CCC(N)=O)NC(=O)[C@H](C)NC(=O)CNC(=O)[C@H]([C@@H](C)CC)NC(=O)[C@H](CCCNC(=N)N)NC(=O)[C@H](CC(=O)O)NC(=O)[C@H](CCSC)NC(=O)[C@H](CCCNC(=N)N)NC(=O)CNC(=O)CNC(=O)[C@H](Cc2ccccc2)NC1=O [SEQ ID NO: 47] | 52.05 pmol/mL | 8.00 |
|  |  | CCCCCCCCCCCCCCCC(=O)NCCOCCOCC(=O)NCCOCCOCC(=O)NCCOCCOCC(=O)N[C@@H](CN)C(=O)N[C@@H](CN)C(=O)N[C@@H](CO)C(=O)N[C@@H](CC(C)C)C(=O)N[C@@H](CCCNC(=N)N)C(=O)N[C@@H](CCCNC(=N)N)C(=O)N[C@@H](CO)C(=O)N[C@@H](CO)C(=O)N[C@H]1CSSC[C@@H](C(=O)N[C@@H](CC(N)=O)C(=O)N[C@@H](CO)C(=O)N[C@@H](Cc2ccccc2)C(=O)N[C@@H](CCCNC(=N)N)C(=O)N[C@@H](Cc2ccc(O)cc2)C(=O)O)NC(=O)CNC(=O)[C@H](CC(C)C)NC(=O)CNC(=O)[C@H](CO)NC(=O)[C@H](CCC(N)=O)NC(=O)[C@H](C)NC(=O)CNC(=O)[C@H]([C@@H](C)CC)NC(=O)[C@H](CCCNC(=N)N)NC(=O)[C@H](CC(=O)O)NC(=O)[C@H](CCC(N)=O)NC(=O)[C@H](CCCNC(=N)N)NC(=O)CNC(=O)CNC(=O)[C@H](Cc2ccccc2)NC1=O [SEQ ID NO: 46] | 76.68** pmol/mL | 17.11 |
